Experimental data reported in patent US11596691B2, “Photoswitchable HDAC inhibitors” (The General Hospital Corporation, priority 2013, dated 2023).

The chains behind the UniProt entries cited, without tags or fusion partners. Where a name states a change or a piece, a line headed by the entry shows the natural chain unless it says otherwise.
UniProt O15379: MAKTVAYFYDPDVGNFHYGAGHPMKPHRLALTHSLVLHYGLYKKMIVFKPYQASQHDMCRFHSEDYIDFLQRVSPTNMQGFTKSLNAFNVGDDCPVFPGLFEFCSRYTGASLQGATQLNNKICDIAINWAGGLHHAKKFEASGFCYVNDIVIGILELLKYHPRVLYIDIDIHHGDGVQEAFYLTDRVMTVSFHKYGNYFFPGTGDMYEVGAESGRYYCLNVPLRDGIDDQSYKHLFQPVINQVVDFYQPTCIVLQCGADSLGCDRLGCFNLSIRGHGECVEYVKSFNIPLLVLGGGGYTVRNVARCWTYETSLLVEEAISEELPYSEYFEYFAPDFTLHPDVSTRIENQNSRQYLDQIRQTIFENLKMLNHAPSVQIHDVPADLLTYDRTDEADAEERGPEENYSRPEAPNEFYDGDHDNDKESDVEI

Molecular target: T1, HDAC3 (Homo sapiens, UniProt O15379)
T1 construct: 40 μL of a stock solution of full-length HDAC protein at three times the desired final concentration
Experiment: Light-dependent HDAC3 biochemical assay (acetyl-lysine tripeptide based on acH4K12)
Details: in the presence and absence of light
Experimental: Compounds were added to white 96-well plates containing 40 μL of HDAC assay buffer (50 mM HEPES, 100 mM KCl, 0.05% BSA, 0.001% Tween-20 at pH 7.4) by pin transfer. To the assay plate was added 40 μL of a stock solution of full-length HDAC protein at three times the desired final concentration. After addition the plate was centrifuged to mix the solution while removing air bubbles. […] After which, reads were taken every 15 minutes to follow the fluorogenic release of 7-amino-4-methylcoumarin from the substrate resulting from deacetylase and trypsin enzymatic activity. In between reads the LED excitation device was reaffixed on top of the plate ensuring maximum cis-isomer population. In parallel to this, a second plate was prepared identically and measured for activity but this plate was not excited by our device but rather was covered to prevent any ambient light from shining on the plate. Replicate pairs of plates were performed.

Which “inhibition of HDAC3 enzymatic activity” value does the source give for `O=C(CCCCCCC(=O)Nc1ccccc1)NO` [SAHA, reference compound] here?
The value was “additional inhibition of HDAC3”.
